Literature values in patent publication US20210155955A1, “THERAPEUTIC CONSTRUCTS FOR TREATING CANCER” (CANCER TARGETING SYSTEMS, INC., priority 2018, published 2021).

Tested on: PD-L1 and PD-L2
Details: Cheng, et al. J. Biol. Chem. 288: 11771-11785, 2013; cited from earlier work

PD-1: immunoglobulin superfamily cell surface receptor; extracellular domain proposed as decoy for PD-L1 and PD-L2
interaction between PD-1 and its ligands: weak (low μM)
